Laboratory results reported in paper PMC5513865 (British Journal of Pharmacology, 2017).

The chains behind the UniProt entries cited, without tags or fusion partners. Where a name states a change or a piece, a line headed by the entry shows the natural chain unless it says otherwise.
UniProt P41145: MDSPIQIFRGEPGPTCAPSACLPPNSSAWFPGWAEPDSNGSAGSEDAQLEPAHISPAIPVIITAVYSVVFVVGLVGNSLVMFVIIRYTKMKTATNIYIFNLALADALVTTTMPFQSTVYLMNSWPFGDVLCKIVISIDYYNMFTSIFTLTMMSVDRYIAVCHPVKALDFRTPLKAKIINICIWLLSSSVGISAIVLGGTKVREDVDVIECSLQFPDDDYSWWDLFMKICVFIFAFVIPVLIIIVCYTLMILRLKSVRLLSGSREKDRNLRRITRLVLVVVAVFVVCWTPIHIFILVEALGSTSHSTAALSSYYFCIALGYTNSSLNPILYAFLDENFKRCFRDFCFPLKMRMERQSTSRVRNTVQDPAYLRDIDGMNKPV

Assays:
human κ receptor [1] = experiment: Bias analysis G protein vs β-arrestin2 (Black-Leff operational model)
human κ receptor [2] = molecular target: T1, human κ receptor (Homo sapiens, UniProt P41145); experiment: [35S]-GTPγS binding assay, CHO-hκ membranes (G protein coupling); format: biochemical
human κ receptor [3] = molecular target: T1, human κ receptor; experiment: PathHunter β-arrestin2 recruitment assay, U2OS-hκ receptor-β-arrestin2 cells; format: cell-based
[4] = system: μ receptor gene-disrupted 'knockout' (μ-KO) mice; experiment: 55°C warm-water tail withdrawal assay in μ-KO mice; format: in vivo, mouse; details: i.c.v., HS665 10 nmol, HS666 30 nmol, U50,488 30 nmol; 20 min
C57BL/6J wild-type mice [5] = experiment: 55°C warm-water tail withdrawal assay after i.c.v. administration; format: in vivo, mouse
[6] = system: κ receptor gene-disrupted 'knockout' (κ-KO) mice; experiment: 55°C warm-water tail withdrawal assay in κ-KO mice; details: i.c.v., HS665 10 nmol, HS666 30 nmol, U50,488 30 nmol; 20 min
C57BL/6J wild-type mice [7] = experiment: Place conditioning to determine CPP/CPA; details: i.c.v., HS665 30 nmol, HS666 150 nmol, U50,488 100 nmol, morphine 30 nmol; 2 days conditioning
[8] = relative to maximal effect of U69,593 (100%)

| Substance | bias factor (G protein over β-arrestin2) (human κ receptor [1]; compared with U69,593 normalized to 1) | ΔΔlog(τ/KA) G protein - β-arrestin2 (human κ receptor [1]; relative to U69,593) | log(τ/KA) G protein (human κ receptor [2]; HS665 and U69,593 assessed in parallel) | log(τ/KA) G protein (human κ receptor [2]; HS666 and U69,593 assessed in parallel) | EC50 (human κ receptor [2]; read-out: G protein coupling EC50, CHO-hκ membranes, n = 5) [nM] | Δlog(τ/KA) G protein (human κ receptor [2]; relative to U69,593) | G protein coupling Emax (human κ receptor [2]; [8]) [%] | log(τ/KA) β-arrestin2 (human κ receptor [3]; operational model) | Δlog(τ/KA) β-arrestin2 (human κ receptor [3]; relative to U69,593) | β-arrestin2 recruitment Emax (human κ receptor [3]; [8]) [%] | antinociceptive activity in μ-KO mice compared with wild-type [4] | antinociceptive ED50 and 95% C.I. (C57BL/6J wild-type mice [5]; 10 min) | antinociceptive ED50 and 95% C.I. (C57BL/6J wild-type mice [5]; 20 min) | antinociceptive ED50 and 95% C.I. (C57BL/6J wild-type mice [5]; 30 min) | antinociceptive ED50 and 95% C.I. (C57BL/6J wild-type mice [5]; 40 min) | antinociceptive ED50 and 95% C.I. (C57BL/6J wild-type mice [5]; 50 min) | antinociceptive ED50 and 95% C.I. (C57BL/6J wild-type mice [5]; 60 min) | antinociceptive activity in κ-KO mice compared with wild-type [6] | conditioned place preference or aversion (C57BL/6J wild-type mice [7]) |
| --- | --- | --- | --- | --- | --- | --- | --- | --- | --- | --- | --- | --- | --- | --- | --- | --- | --- | --- | --- |
| (+)‐(5α,7α,8β)‐(−)N‐methyl‐N‐[7‐(1‐pyrrolidinyl)‐1‐oxaspiro(4,5)dec‐8‐yl]benzeneacetamide | 1 | 0 | 7.98 ± 0.11 | 7.59 ± 0.17 | 18.2 | 0 | 100 | 7.17 ± 0.16 | 0 | 100 | – | – | – | – | – | – | – | – | – |
| (±)‐trans‐3,4‐dichloro‐N‐methyl‐N‐[2‐(1‐pyrrolidinyl)cyclohexyl]benzeneacetamide | – | – | – | – | – | – | – | – | – | – | did not differ | 8.94 (6.55 – 12.0) nmol | 8.31(5.47 – 12.0) nmol | 7.21 (4.02–11.1) nmol | 9.56 (6.17 – 14.8) nmol | 11.1 (7.83 –16.3) nmol | 14.2 (10.7 – 20.4) nmol | significant loss | significant place aversion |
